Test results published in patent publication US8623416B2 (priority 2009, dated 2014).

Conditions: injection of 1 mg of suspension at 1 mg/ml

squalamine phosphate
steady state concentration of squalamine to which local tissues are exposed: ≤ 1 µg/mL
